# scFv variants of Ab-91 (heavy chain) against a SARS-CoV-2 spike peptide

From the AlphaSeq antibody data of Engelhart et al. 2022 (doi:10.1038/s41597-022-01779-4), copy in the FLAb collection.

All variants were tested on one target, the spike HR2 peptide PDVDLGDISGINAS (SARS-CoV-2).

Parent: Ab-91, a human scFv built as VL, a (GGGGS)3 linker, VH. Only the CDRs of the heavy chain vary.
VL: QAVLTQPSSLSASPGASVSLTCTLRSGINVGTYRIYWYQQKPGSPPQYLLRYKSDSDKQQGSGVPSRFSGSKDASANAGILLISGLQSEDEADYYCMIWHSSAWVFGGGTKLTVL
VH: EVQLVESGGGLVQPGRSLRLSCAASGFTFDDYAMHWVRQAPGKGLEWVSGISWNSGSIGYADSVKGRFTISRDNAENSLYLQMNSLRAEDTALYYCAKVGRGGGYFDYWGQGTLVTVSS

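Phage display of a naive human antibody library on the peptide gave the parent. AAYL51 was designed without a model: most single CDR substitutions and a random sample of double and triple ones. AlphaSeq pools MATa yeast showing the antibodies with MATalpha yeast showing the peptide. Binding brings cells together so that they mate, and sequencing counts the barcode pairs among the diploids. A regression on co-assayed BCL2-family reference pairs converts the normalised counts of each replicate to an apparent Kd. The assay was run in three technical replicates.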

Sequences are complete VH domains. Numbers give log10(Kd / nM), so 0 is 1 nM and 3 is 1 µM. Smaller is tighter. The mean shown is taken over the replicates in which the pair was detected. A pair that was not seen in that replicate is written "ND"; this usually means weak binding, but a binder can also be missed. Nonspecific signal, from three strains lacking the peptide, appeared in 21% of pairings of library AAYL51, centred on 4.54 (5% of these signals below 3.26); values are not corrected for it. Also given: how often the same scFv was detected with the empty control strains, with their mean in brackets.

VH | log10 Kd, replicates | mean, log10 nM | empty controls
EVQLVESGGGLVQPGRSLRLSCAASGFTFDDYAMHWVRQAPGKGLEWVSPQSWESGSIGYADSVKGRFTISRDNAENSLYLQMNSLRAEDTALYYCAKVGRGGGYFDYWGQGTLVTVSS | ND / ND / ND | ND | 1 of 9 (3.70)
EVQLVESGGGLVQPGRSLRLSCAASGFTFDDYAMHWVRQAPGKGLEWVSGISWWSGSIGYADSVKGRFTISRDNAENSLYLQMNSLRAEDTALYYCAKQGGGGGYFDYWGQGTLVTVSS | ND / 3.45 / ND | 3.45 | 0 of 9
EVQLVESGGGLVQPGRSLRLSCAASGFYFDDYCMHWVRQAPGKGLEWVSGISRNSGSIGYADSVKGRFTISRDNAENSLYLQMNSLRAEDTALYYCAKVGRGGGYFDYWGQGTLVTVSS | 4.78 / ND / ND | 4.78 | 3 of 9 (4.74)
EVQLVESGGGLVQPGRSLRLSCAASGFRQDDYAMHWVRQAPGKGLEWVSGISWNSGSIGYADSVKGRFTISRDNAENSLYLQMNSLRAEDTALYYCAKVGGGGGYFDYWGQGTLVTVSS | ND / ND / ND | ND | 0 of 9
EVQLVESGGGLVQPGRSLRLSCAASGFTQDYYAMHWVRQAPGKGLEWVSGISWNSGSIGYARSVKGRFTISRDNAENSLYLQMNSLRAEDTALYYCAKVGRGGGYFDYWGQGTLVTVSS | ND / ND / ND | ND | 0 of 9
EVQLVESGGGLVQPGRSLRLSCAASGFTFSDYAMHWVRQAPGKGLEWVSGISWNSGSWGYADRVKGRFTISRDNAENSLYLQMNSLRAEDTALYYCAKVGRGGGYFDYWGQGTLVTVSS | 2.71 / 2.60 / 2.24 | 2.52 | 7 of 9 (5.00)
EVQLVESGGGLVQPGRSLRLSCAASGFWFDDYAMHWVRQAPGKGLEWVSRISWNSGSIGYADSVKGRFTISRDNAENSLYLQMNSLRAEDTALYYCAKVGRTGGYFDYWGQGTLVTVSS | ND / ND / ND | ND | 0 of 9
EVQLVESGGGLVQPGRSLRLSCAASWFTFDDYAMHWVRQAPGKGLEWVSGISWNSGSIGYADSVMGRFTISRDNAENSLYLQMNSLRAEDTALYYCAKVGRIGGYFDYWGQGTLVTVSS | ND / 5.39 / ND | 5.39 | 4 of 9 (4.95)
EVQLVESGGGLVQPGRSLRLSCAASGFTFDDYAMHWVRQAPGKGLEWVSGISWNSGSITYADSVKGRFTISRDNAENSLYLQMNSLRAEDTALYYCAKVGRGGRYFWYWGQGTLVTVSS | ND / ND / 4.61 | 4.61 | 2 of 9 (4.75)
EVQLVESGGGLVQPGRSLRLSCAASGFTFDDYAMWWVRQAPGKGLEWVSGISWNSAGIGYADSVKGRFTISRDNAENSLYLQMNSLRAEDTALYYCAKVGRGGGYFDYWGQGTLVTVSS | ND / ND / ND | ND | 0 of 9
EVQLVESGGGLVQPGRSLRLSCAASGFTFDDYAMHWVRQAPGKGLEWVSGISWNRGSEGYADSVKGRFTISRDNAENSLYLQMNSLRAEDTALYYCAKVGRGGGYFTYWGQGTLVTVSS | 5.43 / ND / 5.44 | 5.44 | 5 of 9 (4.57)
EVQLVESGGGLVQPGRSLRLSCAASGFTFDDYAMHWVRQAPGKGLEWVSGISWNSGIIGYADSMKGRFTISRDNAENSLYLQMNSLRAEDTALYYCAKVGRGGGYFIYWGQGTLVTVSS | 3.28 / 3.91 / 3.54 | 3.58 | 0 of 9
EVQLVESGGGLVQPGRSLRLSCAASGFTFEDYAMHWVRQAPGKGLEWVSGISWNSGSIGYDDSVKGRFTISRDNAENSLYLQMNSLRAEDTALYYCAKVGRGGGYFDNWGQGTLVTVSS | 3.71 / ND / ND | 3.71 | 3 of 9 (4.61)
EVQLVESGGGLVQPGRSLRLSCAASGFTFDDYAMHWVRQAPGKGLEWVSNISWNSGSIGYADSVKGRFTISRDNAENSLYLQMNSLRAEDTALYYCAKVGRGGGYFDYWGQGTLVTVSS | 6.20 / 4.80 / 4.68 | 5.23 | 7 of 9 (4.94)

Parent in this assay: reference entry 1.86, copy in this library 0.88.